What is called inhibition is the drop in the measured response relative to a control, in per cent.

Molecules are shown by their SMILES. The list shows a part of the results, in another mix than the full data. Active and inactive are the calls of the source.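 Rule for the calls: active = inhibition above the mean over all tested compounds plus 3 SD (cut at about 30% in these data); inactive = the rest.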

Results on 74 molecules are retold here after PubChem BioAssay AID492956 (The Scripps Research Institute Molecular Screening Center, 2010).

This assay has as its target Platelet-activating factor acetylhydrolase 2, cytoplasmic (Homo sapiens) (UniProt Q99487). In words: PAFAH2 enzyme inhibitors, primary screen, biochemical, fluorescence polarization, human (AID 492956).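 Note: inhibitors block probe labeling of enzyme so polarization drops; 0% = enzyme with DMSO and 100% = wells lacking PAFAH2 protein.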 The following applies: recombinant PAFAH2, FP-rhodamine activity probe, at 3.39 µM, hits give high values. (In general: In fluorescence polarisation assays a small probe gives low polarisation when free and higher when bound to something large.)
`COc1ccc(CN(CCCl)CCCl)cc1Cl`: the inhibition is inactive: 1.07%.
As for `CN(C)c1cccc(C(=O)NCC2(N3CCCCC3)CCCCC2)c1`, the inhibition was inactive: -0.55%.
Regarding `CC(C)c1ccc(NC2CCN(C(=O)OC(C)(C)C)CC2)cc1`, the inhibition is inactive: -0.01%.
For the molecule `COc1cc(OC)c(C(=O)NCC2(N(C)C)CCCCC2)cc1OC`, the inhibition was inactive: 0.72%.
In the case of `O=C(NCC1(N2CCOCC2)CCCCC1)c1cc(F)c(F)cc1Cl`, the inhibition was inactive: 5.43%.
With `O=C(NCC1(N2CCCCC2)CCCCC1)c1cncc(Br)c1`, the inhibition was inactive: 0.16%.
With `CN1CCC(Nc2cccc(F)c2)CC1`, the inhibition is inactive: 3.48%.
Consider `CCCOc1ccc(C(=O)NCC2(N(C)C)CCCCC2)cc1OC`, for which the inhibition was inactive: -1.83%.
As for `O=C(NCC1(N2CCCCC2)CCCCC1)c1ccc(OC(F)F)cc1`, the inhibition is inactive: 6.93%.
Regarding `O=C(NCC1(N2CCCCC2)CCCCC1)c1cccc([N+](=O)[O-])c1`, the inhibition is inactive: -2.44%.
Regarding `CSc1ccc(C(=O)NCC2(N3CCOCC3)CCCCC2)cc1`, the inhibition was inactive: -1.58%.
Take `CCN1CCC(Nc2ccc(Cl)cc2)CC1`: the inhibition is inactive: 0.95%.
`N#CC1(Nc2ccccc2)CCN(CCc2ccccc2)CC1`: the inhibition is inactive: 4.69%.
On to `O=C(NCC1(N2CCCCC2)CCCCC1)c1cccc(C(F)(F)F)c1`, for which the inhibition is inactive: 8.35%.
Regarding `CN1CCN(CCOC(=O)C(O)(c2ccccc2)c2ccccc2)CC1`, the inhibition is inactive: -1.08%.
As for `CC(C)c1ccc(C(=O)NCC2(N3CCOCC3)CCCCC2)cc1`, the inhibition is inactive: 1.34%.
As for `COc1ccc(NC2CCN(C(=O)OC(C)(C)C)CC2)cc1`, the inhibition is inactive: 4.86%.
`COc1cc(C(=O)NCC2(N3CCCCC3)CCCCC2)ccc1OC(F)F`: the inhibition was inactive: -2.66%.
On to `O=C(NCC1(N2CCOCC2)CCCCC1)c1cc(=O)[nH]c2ccccc12`, for which the inhibition was inactive: 5.14%.
As for `CCOc1ccc(C)cc1CN(CCCl)CCCl`, the inhibition is inactive: 3.98%.
`O=C1CCN(Cc2ccccc2)CC1`: the inhibition is inactive: 2.83%.
For `O=C(NCC1(N2CCCCC2)CCCCC1)c1ccc(F)cc1`, the inhibition is inactive: -11.4%.
Turning to `O=P1(N(CCCl)CCCl)SCCCS1`, the inhibition was inactive: 1.46%.
The figure for `CCCCOc1ccc(C(=O)NCC2(N3CCOCC3)CCCCC2)cc1` is inactive: -4.56%; for `COc1ccc(NC2CCN(CCc3ccccc3)CC2)c(OC)c1` it is inactive: 3.26%; for `CCOC(=O)N1CCC(Nc2ccc(F)cc2)CC1` it is inactive: -1.31%.
The figure for `COc1cc(C(=O)NCC2(N(C)C)CCCCC2)ccc1OC(F)F` is inactive: -9.06%; for `CCOC(=O)N1CCC(Nc2cccc(C)c2)CC1` it is inactive: 2.84%; for `O=C(NCC1(N2CCCCC2)CCCCC1)c1ccc(=O)[nH]c1` it is inactive: 6.17%.
In the case of `O=C(NCC1(N2CCCCC2)CCCCC1)c1cccs1`, the inhibition is inactive: 4.82%.
To `COc1ccc(C(=O)NCC2(N3CCCCC3)CCCCC2)cc1` belongs inactive: 6.8%; to `CC(C)(C)OC(=O)N1CCC(N(C(=O)c2ccccc2)c2ccc(F)cc2)CC1`, inactive: 7.55%.
`COc1ccc(C(=O)NCC2(N3CCCCC3)CCCCC2)c(OC)c1OC`: the inhibition is inactive: -4.37%.
`CSc1ccccc1C(=O)NCC1(N2CCCCC2)CCCCC1`: the inhibition is inactive: -2.82%.
On to `Cc1cccc(NC2(C#N)CCN(Cc3ccccc3)CC2)c1`, for which the inhibition is inactive: 0.59%.
Turning to `O=C(NCC1(N2CCOCC2)CCCCC1)c1cc2ccccc2o1`, the inhibition was inactive: -3.71%.
The figure for `O=C(NCC1(N2CCCCC2)CCCCC1)c1ccc(Cl)nc1` is inactive: -0.86%; for `Cc1cc(C)cc(N(C(=O)c2ccccc2)C2CCN(C(=O)OC(C)(C)C)CC2)c1` it is inactive: -0.36%; for `CCOC(=O)N1CCC(Nc2ccc(OC)cc2)CC1` it is inactive: 6.64%.
As to `O=C(OC1CN2CCC1CC2)C1c2ccccc2Oc2ccccc21` (centres undefined), the inhibition was inactive: 4.17%.
Turning to `O=C(NCC1(N2CCCCC2)CCCCC1)c1ccc(Cl)s1`, the inhibition was inactive: 3.35%.
On to `N#CC1(Nc2ccccc2)CCN(Cc2ccccc2)CC1`, for which the inhibition is inactive: 1.5%.
`COc1ccc(Cl)cc1C(=O)NCC1(N2CCOCC2)CCCCC1`: the inhibition is inactive: -11.3%.
For the molecule `CCOc1ncccc1C(=O)NCC1(N2CCOCC2)CCCCC1`, the inhibition is inactive: 1.18%.
Consider `CN1CCC(Nc2ccc(F)c(Cl)c2)CC1`, for which the inhibition was inactive: -7.15%.
`CCCOc1ccc(C(=O)NCC2(N(C)C)CCCCC2)cc1`: the inhibition was inactive: -4.44%.
As to `CC(C)(C)OC(=O)N1CCC(Nc2ccccc2)CC1`, the inhibition is inactive: 1.57%.
With `O=C(O)C1(Nc2ccccc2)CCN(Cc2ccccc2)CC1`, the inhibition was inactive: 0.87%.
For `CCC(CO)(C(=O)OC1CN2CCC1CC2)c1ccccc1` (centres undefined), the inhibition was inactive: 0.79%.
To `COc1cc(OC)cc(C(=O)NCC2(N3CCOCC3)CCCCC2)c1` belongs inactive: -2.56%; to `COc1cccc(C(=O)N(c2cc(C)cc(C)c2)C2CCN(C(=O)OC(C)(C)C)CC2)c1`, inactive: -1.93%; to `CN1CCC(Nc2ccc(Cl)cc2)CC1`, inactive: 2.5%.
Consider `COc1cc(OC)cc(C(=O)NCC2(N3CCCCC3)CCCCC2)c1`, for which the inhibition is inactive: 10.8%.
As to `CC(=O)N(c1ccccc1)C1CCNCC1`, the inhibition was inactive: -5.27%.
With `Cc1ccc(NC2(C#N)CCN(Cc3ccccc3)CC2)cc1`, the inhibition is inactive: 0.37%.
For the molecule `Cc1ccc(C(=O)NCC2(N3CCCCC3)CCCCC2)o1`, the inhibition is inactive: 1.97%.
For `Fc1ccccc1NC1CCN(Cc2ccccc2)CC1`, the inhibition is inactive: -1.99%.
The figure for `Cc1ccccc1NC1(C#N)CCN(Cc2ccccc2)CC1` is inactive: -2%; for `CCN1CCC(Nc2cccc(F)c2)CC1` it is inactive: -3.43%; for `O=C(NCC1(N2CCCCC2)CCCCC1)c1ccco1` it is inactive: -8.61%.
For the molecule `Cn1c(=O)[nH]cc(N(CCCl)CCCl)c1=O`, the inhibition was inactive: 3.63%.
As to `CN(C)c1ccc(C(=O)NCC2(N3CCCCC3)CCCCC2)cc1`, the inhibition was inactive: 5.61%.
In the case of `CC(C)(C)OC(=O)N1CCC(N(C(=O)c2ccccc2)c2ccc(Cl)cc2)CC1`, the inhibition is inactive: 1.06%.
Take `N#Cc1ccc(C(=O)NCC2(N3CCCCC3)CCCCC2)cc1`: the inhibition is inactive: 7.96%.
Regarding `c1ccc(CN2CCC(Nc3ccccc3)CC2)cc1`, the inhibition is inactive: 3.57%.
To `Cc1cc(N(CCCl)CCCl)ccc1C=O` belongs inactive: -0.96%; to `CCCN1CCC(Nc2cc(OC)cc(OC)c2)CC1`, inactive: 2.71%; to `CN(C)C1(CNC(=O)c2cccc(C#N)c2)CCCCC1`, inactive: 5.93%.
For `O=C(NCC1(N2CCOCC2)CCCCC1)c1cc(Br)ccc1Cl`, the inhibition was inactive: 2.81%.
Regarding `COc1cc(C(=O)NCC2(N3CCOCC3)CCCCC2)cc(OC)c1C`, the inhibition was inactive: 1.87%.
On to `COc1ccc(C(=O)NCC2(N3CCOCC3)CCCCC2)cc1OC`, for which the inhibition was inactive: -6.08%.
The figure for `N/C(=N\O)c1c(N)no[n+]1[O-]` is inactive: 4.61%; for `CCOC(=O)N1CCC(Nc2ccc(C)cc2)CC1` it is inactive: -2.58%.
To `O=C(OC1CN2CCC1CC2)C1c2ccccc2C=Cc2ccccc21` (centres undefined) belongs inactive: -8.26%.
